System: MCH58 fibroblasts
Experiment: Glucose versus galactose cell growth screen (metabolic state-dependent lethality)
Details: for Sglu/gal (log10 fold change) Score: approximately 10 μM compound, 72 hours, log10 fold change of normalized cell number in glucose versus galactose

Molecule	Sglu/gal (log10 fold change) Score	inhibitory activity against cell growth in galactose (SAR analysis) (galactose versus glucose)
Thiethylperazine malate	0.15	more active than flufenazine
CC(=O)Oc1ccc(C(c2ccc(OC(C)=O)cc2)c2ccccn2)cc1 [Bisacodyl]	0.18	

— patent US9399032B2, “Methods and compositions for treating degenerative and ischemic disorders” (The General Hospital Corporation, priority 2009, dated 2016)
